A selection: hits, their analogues and other compounds. The true share with any hit is near 1.5%.
PABP1 MLLE inh – blocks PAM2 peptide binding to the PABP1 MLLE domain | AID 588489 | GST-MLLE / FITC-PAM2 fluorescence polarization | inhibition, % at 20 µM | hit rate 0.36% among 360,000; in the data active = inhibition above about 35%, passing the limit was not always enough;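 also: plate controls were DMSO wells with GST-MLLE for no effect and wells lacking GST-MLLE protein for full effect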
DSG3 Ab inh – inhibitors of pemphigus antibody binding to human desmoglein-3; DSG3-coupled beads, scFv-anti-DSG3-GFP binding, flow cytometry; stronger effect = lower value; hit rate 0.48% among 310,000; binding (percent of control), % at 10 µM;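 active = binding more than 3 SD below its plate's average and above zero; inconclusive = below that plate limit but binding exactly zero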
eIF4H inh – inhibitors of RNA binding by human eIF4H. eIF4H fluorescence polarization binding assay. Q15056. inhibition, % at 35 µM. hit rate 0.94% among 290,000;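 also: calls also rest on retests at 20 µM and on dose response follow-up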
Yeast UUG start – alters start codon recognition fidelity in yeast; S. cerevisiae UUG-firefly luciferase reporter, luminescence/redox ratio; activity score, % at 18.7 µM; actives 0.13% (n = 350,000);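 active means replicate mean at a twofold rise or more, about +100% in these data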;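 further: firefly luciferase made from a UUG start codon reports start codon fidelity; reporter light over untreated wells divided by growth signal over untreated wells; some hits fall short of that in this replicate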
PABP FP inh – PABP-poly(A) binding inhibition. P11940. PABP-poly(A) RNA binding, fluorescence polarization. calls only at 35 µM. hit rate 1% among 290,000. AID 2014;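 also: calls also rest on retests at 20 µM and on dose response follow-up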
* marks the source's active call; other numbers are inactive results; i = inactive; ? = inconclusive; nt = no result; + = active, no number. Unless noted, no rule for the calls is given here.

No. | Compound | PABP1 MLLE inh | DSG3 Ab inh | eIF4H inh | Yeast UUG start | PABP FP inh
1 | CCOc1ccc(S(=O)(=O)N(CC(=O)N/N=C/c2ccc(-c3ccc([N+](=O)[O-])cc3)o2)c2ccccc2)cc1 | -31 | 103 | 79* | 19 | +
2 | Cc1ccc(C)c(N(CC(=O)N/N=C/c2ccc(-c3ccc([N+](=O)[O-])cc3)o2)S(=O)(=O)c2ccccc2)c1 | -36 | 85* | ? | -17 | i
3 | C[C@@H]1CN([C@@H](C)CO)C(=O)c2cc(N(C)C)ccc2O[C@H]1CN(C)Cc1ccncc1 | nt | nt | nt | -11 | nt
4 | COc1cccc(-n2c(=S)sc3c(=O)n(-c4ccccc4OC)c(=S)[nH]c32)c1 | 41* | 98 | -3 | nt | i
5 | COc1ccccc1-n1c(=S)[nH]c2c(sc(=S)n2-c2ccccc2)c1=O | 27 | 116 | 2 | nt | i
6 | C[C@@H]1CN([C@@H](C)CO)C(=O)Cc2cc(NC(=O)C3CCCCC3)ccc2O[C@H]1CN(C)CC1CCCCC1 | nt | nt | nt | 7 | nt
7 | CN1/C(=C\C(=O)c2cccc([N+](=O)[O-])c2)Sc2ccccc21 | 39* | 103 | 11 | -9 | i
8 | O=C(O)CCN1C(=O)/C(=C2\C(=O)N(Cc3ccc(F)cc3)c3ccccc32)SC1=S | 33 | 100 | 30 | -4 | i
9 | CN1C(=O)/C(=C2\SC(=S)N(CCCCCC(=O)O)C2=O)c2ccccc21 | 35 | 45* | 79 | -11 | i
10 | Cc1ccc(/C=C2\SC(=S)N(c3c(C)n(C)n(-c4ccccc4)c3=O)C2=O)cc1 | 47* | 100 | 3 | -15 | i
11 | Cc1c(N2C(=O)/C(=C3\C(=O)N(CC(=O)O)c4ccccc43)SC2=S)c(=O)n(-c2ccccc2)n1C | 52* | 101 | 1 | 9 | i
12 | COc1ccccc1CNC(=O)C[C@H]1CC[C@@H]2[C@H](COC[C@H](O)CN2C(=O)Nc2ccc(Cl)cc2)O1 | nt | nt | nt | 13 | nt

With a hit mark in DSG3 Ab inh, among the entries above:
No. | Compound | PABP1 MLLE inh | DSG3 Ab inh | eIF4H inh | Yeast UUG start | PABP FP inh
2 | Cc1ccc(C)c(N(CC(=O)N/N=C/c2ccc(-c3ccc([N+](=O)[O-])cc3)o2)S(=O)(=O)c2ccccc2)c1 | -36 | 85* | ? | -17 | i
9 | CN1C(=O)/C(=C2\SC(=S)N(CCCCCC(=O)O)C2=O)c2ccccc21 | 35 | 45* | 79 | -11 | i

The list continues.
No. | Compound | PABP1 MLLE inh | DSG3 Ab inh | eIF4H inh | Yeast UUG start | PABP FP inh
13 | O=C(C[C@@H]1C[C@H]2c3cc(NS(=O)(=O)c4ccc(F)cc4)ccc3O[C@H]2[C@@H](CO)O1)NCc1cccc(F)c1 | nt | nt | nt | 8 | nt
14 | O=C(N[C@@H]1CC[C@H](CCNS(=O)(=O)c2ccc(Cl)cc2)O[C@H]1CO)c1cccnc1 | nt | nt | nt | -7 | nt
15 | C[C@@H]1CN([C@@H](C)CO)C(=O)c2cc(NC(=O)Nc3cccc4ccccc34)ccc2O[C@@H](C)CCCCO[C@H]1CN(C)Cc1ccc2c(c1)OCO2 | nt | nt | nt | 11 | nt
16 | CC1=NOC(=O)/C1=C\c1ccc(-c2ccc(Cl)cc2Cl)o1 | -1 | 86 | 55* | -12 | i
17 | CCCNC(=O)C[C@H]1CC[C@@H]2[C@H](COC[C@@H](O)CN2Cc2ccc(Cl)c(Cl)c2)O1 | nt | nt | nt | 2 | nt
18 | CCCNC(=O)Nc1ccc2c(c1)C(=O)N(C)C[C@@H](OC)[C@H](C)CN(C(C)=O)[C@@H](C)CO2 | nt | nt | nt | -9 | nt
19 | c1ccc(-c2ccccc2OCCCN2CCCC2)cc1 | -4 | 72* | 5 | -9 | i
20 | C[C@@H]1CN([C@@H](C)CO)C(=O)c2cc(NC(=O)C3CCCCC3)ccc2O[C@H]1CN(C)S(=O)(=O)c1cn(C)cn1 | nt | nt | nt | -1 | nt
21 | Cc1noc(C)c1S(=O)(=O)Nc1ccc2c(c1)C(=O)N([C@H](C)CO)C[C@H](C)[C@H](CN(C)Cc1ccc3c(c1)OCO3)OCCCC[C@H](C)O2 | nt | nt | nt | 8 | nt
22 | CCc1cc(=O)oc2cc(OC(=O)CN3C(=O)NC4(CCCC4)C3=O)ccc12 | 7 | 112 | -7 | -16 | i
23 | O=C(CN1C(=O)NC2(CCCCC2)C1=O)Oc1ccc2c(C(F)(F)F)cc(=O)oc2c1 | 44* | 109 | nt | -6 | nt
24 | Cc1c(Cl)c([N+](=O)[O-])nn1CCCC(=O)NCCc1ccccc1 | 11 | 104 | -9 | -15 | i

25) Cc1c(Cl)c([N+](=O)[O-])nn1CCCC(=O)O
26) COc1ccc(NC(=O)Nc2sc(NS(=O)(=O)c3ccccc3)nc2C)cc1
27) Cc1nc(NS(=O)(=O)c2ccccc2)sc1NC(=O)OC(C)C
28) O=C(C1CCCC1)N1CCCCN2[C@H](CO)[C@H](c3ccc(C#CC4(O)CCCC4)cc3)[C@H]2C1
29) O=C(O)c1ccccc1NS(=O)(=O)c1cccc(-n2sc3ccccc3c2=O)c1
30) COc1cc2c3c(c1)/C(=C1/SC(NC(C)=O)=NC1=O)C(=O)N3C(C)(C)C=C2C
31) O=C(C[C@H]1CC[C@@H](NC(=O)c2cccc(F)c2)[C@@H](CO)O1)Nc1nccs1
entry no.,25,26,27,28,29,30,31
PABP1 MLLE inh,-2,40*,39*,nt,11,37*,nt
DSG3 Ab inh,103,111,103,nt,46*,94,nt
eIF4H inh,active,-4,-3,nt,47*,18,nt
Yeast UUG start,nt,nt,-13,23,16,-18,-5
PABP FP inh,i,i,i,nt,+,i,nt

Source: PubChem BioAssay (several laboratories)
